Earlier results in article PMC6738096 (British Journal of Cancer, 2019).

Experiments:
ALK-positive NSCLC [1] = tested on: ALK-positive NSCLC; design: method as in not given; conditions: ALK pre-treated setting, post crizotinib; ref not given; cited from earlier work
ALK-positive NSCLC [2] = conditions: cited from earlier work

## CCc1cc2c(cc1N1CCC(N3CCOCC3)CC1)C(C)(C)c1[nH]c3cc(C#N)ccc3c1C2=O [alectinib]
ALK-positive NSCLC [1]
  Objective response rate: 38–48%

## C[C@@H](Oc1cc(-c2cnn(C3CCNCC3)c2)cnc1N)c1c(Cl)ccc(F)c1Cl [crizotinib]
ALK-positive NSCLC [2]; ALK-positive NSCLC, versus chemotherapy 7.0
  Median progression-free survival: 10.9 months
ALK-positive NSCLC [2]; ALK-positive NSCLC, versus chemotherapy 45%
  Response rate: 74%
ALK-positive NSCLC [2]; acquired resistance in treated patients
  Disease progression occurring within: ~ 1 year
